# This is a selection; strong and weak results do not stand in their true shares. Some tests of the compounds listed are not included; inactive here does not mean inactive elsewhere. Calls of active or inactive are those of the source.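 The calls were made as follows: active = fluorescence ratio falls more than 5 SD below the full-stimulation control mean, in both duplicate runs; inactive = the rest.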
# By UniProt entry, the sequences of proteins in these tests, tags left out.
# UniProt Q61143, whole entry: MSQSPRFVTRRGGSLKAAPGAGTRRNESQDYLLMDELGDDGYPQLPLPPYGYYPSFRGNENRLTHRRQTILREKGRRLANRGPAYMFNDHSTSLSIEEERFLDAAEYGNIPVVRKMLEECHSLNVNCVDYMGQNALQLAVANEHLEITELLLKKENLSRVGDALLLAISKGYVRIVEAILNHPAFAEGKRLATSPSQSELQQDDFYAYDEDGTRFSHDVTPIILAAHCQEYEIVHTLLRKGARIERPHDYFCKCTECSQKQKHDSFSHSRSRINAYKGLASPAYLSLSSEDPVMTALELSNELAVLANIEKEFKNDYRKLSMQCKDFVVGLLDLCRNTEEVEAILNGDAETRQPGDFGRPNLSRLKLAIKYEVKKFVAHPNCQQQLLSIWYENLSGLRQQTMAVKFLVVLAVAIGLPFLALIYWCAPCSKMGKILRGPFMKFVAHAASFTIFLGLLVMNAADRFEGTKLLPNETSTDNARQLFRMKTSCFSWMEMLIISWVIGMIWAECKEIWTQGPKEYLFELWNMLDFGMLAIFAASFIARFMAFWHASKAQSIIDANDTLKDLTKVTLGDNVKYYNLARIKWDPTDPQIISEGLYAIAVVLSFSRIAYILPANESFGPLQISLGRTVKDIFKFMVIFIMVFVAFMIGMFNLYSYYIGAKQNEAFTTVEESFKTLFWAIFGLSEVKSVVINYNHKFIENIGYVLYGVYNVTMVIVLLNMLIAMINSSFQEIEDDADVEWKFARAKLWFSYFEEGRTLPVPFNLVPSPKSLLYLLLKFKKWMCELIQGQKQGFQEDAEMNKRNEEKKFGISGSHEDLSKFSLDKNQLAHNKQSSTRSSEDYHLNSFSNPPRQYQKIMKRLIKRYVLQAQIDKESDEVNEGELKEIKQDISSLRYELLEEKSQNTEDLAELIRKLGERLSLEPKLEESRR
# Target: Short transient receptor potential channel 6 (Mus musculus) (UniProt Q61143)
# Experiment: mouse TRPC6 channel inhibitors, confirmation, HEK293 cells, membrane potential dye, duplicate (AID 488960);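 also: integrated fluorescence ratio of peak minus minimum over baseline after agonist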
# Settings: ACh-evoked depolarization, at 10 µM, stronger effect = higher value
row,SMILES,inhibition
1,CCN(CC)CC(C)C(C)OC(=O)C(O)(c1ccccc1)c1ccccc1 (stereo not drawn),active: 91.5%
2,CN1[C@@H]2CC[C@H]1CC(OC(=O)C(O)(c1ccccc1)c1ccccc1)C2 (stereo partly drawn),active: 93%
3,O=C(OC1CN2CCC1CC2)C(CO)(c1ccccc1)c1ccccc1 (stereo not drawn),active: 95.4%
